1 compound from ChEMBL document CHEMBL6103538, “Carbonic anhydrases: Moiety appended derivatives, medicinal and pharmacological implications” (Bioorg Med Chem, 2024) can be followed below.

For experiment [1], the species on record is Homo sapiens. Put plainly: Selectivity ratio of Ki for human CA2 to Ki for human CA9.
The species named for experiment [2] is Homo sapiens. Put plainly: Selectivity ratio of Ki for human CA2 to Ki for human CA12.

For `COc1cccc(NC(=O)Nc2ccc(S(N)(=O)=O)cc2)c1`, the Ratio IC50 in the experiment listed under Homo sapiens [1] is 1.84; in the experiment listed under Homo sapiens [2], 0.83.
